What was measured:
[1] = tested on: HER2+ metastatic breast cancer; test: Progression free survival of HER2+ mBC patients treated with trastuzumab and chemotherapy; format: in vivo, human
Excerpt: Here we retrospectively evaluated the pretreatment serum metabolome for association with PFS in a cohort of 23 trastuzumab-treated metastatic breast cancer patients. […] This metabolite BoR could be used to screen future patients to predict response to trastuzumab.
Patients were subdivided into early progressors (PFS<301 days) and late progressors (PFS≥301 days). […] The remaining patients received trastuzumab as part of second-, third-, fourth-line or beyond.

[2] = tested on: HER2+ metastatic breast cancer; conditions: after about 1 year of PFS; cited from earlier work

## trastuzumab: monoclonal antibody that binds to the HER2 receptor inhibiting dimerization
[1]; 23 HER2+ mBC patients, trastuzumab and chemotherapy
  median PFS: 301 days
[1]; PFS<301 days, of 23 patients
  Non-responders (NR), early progressors: 13
[1]; PFS≥301 days, of 23 patients
  Responders (R), late progressors: 10
[2]
  patients who stop responding to therapy: approximately 75%
